The nature of this data set: Phase I healthy volunteer study, pharmacokinetics.

As to `N#Cc1ccc(N2C[C@H](N)C[C@H](C(F)(F)F)C2)c2cccnc12` (single isomer, unassigned) [Compound 3], the “dose proportionality of pharmacokinetics (PK)” value (Phase I healthy volunteers) was “dose-proportional”. Further, the metabolism entry (not the common CYP450 enzymes) is given as “mainly metabolized by aldehyde oxidase”.

Values taken from US20240024308A1, “TLR7/8 ANTAGONISTS FOR THE TREATMENT OF CORONAVIRUS INFECTIONS” (Merck Healthcare KGaA, priority 2020, published 2024).
